Here are results for 1 molecule from ChEMBL document CHEMBL4049404, “Discovery of (R)-1-(3-(4-Amino-3-(3-chloro-4-(pyridin-2-ylmethoxy)phenyl)-1H-pyrazolo[3,4-d]pyrimidin-1-yl)piperidin-1-yl)prop-2-en-1-one (CHMFL-EGFR-202) as a Novel Irreversible EGFR Mutant Kinase Inhibitor with a Distinct Binding Mode” (J Med Chem, 2017).

In assay [1] the test system is Epidermal growth factor receptor (Homo sapiens), P00533 [L858R,T790M]. The conditions noted are these: 0.01 to 3 uM.
Assay [2] has as its system Epidermal growth factor receptor (Homo sapiens), P00533 [T790M,C797S].
Assay [3] concerns Epidermal growth factor receptor (Homo sapiens), P00533 [L858R,T790M].
The test system of assay [4] is Epidermal growth factor receptor (Homo sapiens), P00533 [UNDEFINED MUTATION].
Assay [5] has as its system Epidermal growth factor receptor (Homo sapiens), P00533 [L858R]. The note with it: 0.01 to 3 uM.
For assay [6], the system named is Epidermal growth factor receptor (Homo sapiens), P00533 [UNDEFINED MUTATION]. The conditions noted are these: 100 nM.
For assay [7], the target named is T1, Epidermal growth factor receptor (Homo sapiens, UniProt P00533). The assay can be described thus: Inhibition of wild-type EGFR in human H1703 cells assessed as growth inhibition after 72 hrs by CellTiter-Glo assay. It is filed as cell-based.
For assay [8], the system named is Epidermal growth factor receptor (Homo sapiens), P00533 [UNDEFINED MUTATION]. The conditions noted are these: 0.01 to 3 uM.
For assay [9], the system named is Epidermal growth factor receptor (Homo sapiens), P00533 [L858R,T790M,C797S].
Assay [10] relates to Epidermal growth factor receptor (Homo sapiens), P00533 [C797S].
For assay [11], the target named is T1, Epidermal growth factor receptor. The assay can be described thus: Inhibition of wild-type EGFR (unknown origin) autophosphorylation at Y1068 expressed in mouse BAF3 cells after 4 hrs by Western blot analysis. It counts as ADME, cell-based.
Assay [12] relates to Epidermal growth factor receptor (Homo sapiens), P00533 [L858R,T790M]. The note with it: 100 nM.
Assay [13] shares this test system. The note with it: 100 nM. The source holds these as a separate data set.
Assay [14] deals with Epidermal growth factor receptor (Homo sapiens), P00533 [UNDEFINED MUTATION]. The source holds these as a separate data set.
In assay [15] the target is T1, Epidermal growth factor receptor. Description: Binding affinity to wild-type human EGFR expressed in bacterial system assessed as control score at 1 uM by KINOMEScan assay. The conditions noted are these: read-out: Activity. It is filed as ADME.
Assay [16] has as its target Epidermal growth factor receptor (Homo sapiens, UniProt P00533, T790M). The assay can be described thus: Inhibition of recombinant human GST-tagged EGFR T790M mutant cytoplasmic domain (668 to 1210 residues) expressed in baculovirus by Z'-LYTE assay.
Assay [17] relates to Epidermal growth factor receptor (Homo sapiens), P00533 [UNDEFINED MUTATION]. The conditions noted are these: 100 nM. This is another data set of the same source.
For assay [18] the test system is unchanged. The conditions noted are these: 0.01 to 3 uM. The source holds these as a separate data set.
The subject of assay [19] is Epidermal growth factor receptor (Homo sapiens), P00533 [C797S,L858R].
In assay [20] the test system is Epidermal growth factor receptor (Homo sapiens), P00533 [L858R].

Activity calls are given as the source filed them. No cut-off for these calls is given here.

Turning to `C=CC(=O)N1CCC[C@@H](n2nc(-c3ccc(OCc4ccccn4)c(Cl)c3)c3c(N)ncnc32)C1`, the inhibition entry in [1], in assay [5], in assay [6], in assay [8], in assay [12] and in assay [13] was “Active” each time. The inhibition result in assay [17] and in [18] was “Active” in each case. The GI50 in assay [2] was determined as 2300 nM; in assay [3], 5 nM; in [4], 4 nM; in [7], 8300 nM; in assay [9] it was 7900 nM; in assay [10], 4600 nM. The GI50 in assay [14] was found to be 4 nM; in assay [19] it was 5700 nM; in assay [20], 75 nM. This molecule also registered an EC50 in assay [11] of 70 nM. Moreover, in assay [15], the activity at 1 µM came out at 0.7%. The IC50 in assay [16] was determined as 5.3 nM.
